The source of these data is US10040788B2, “1,3,4-thiadiazole compounds and their use in treating cancer” (AstraZeneca AB, priority 2014, dated 2018).

Sequences of proteins named here, by UniProt entry; tags and fusion partners are left off. Residues count along the entry.
UniProt O94925, 55-669: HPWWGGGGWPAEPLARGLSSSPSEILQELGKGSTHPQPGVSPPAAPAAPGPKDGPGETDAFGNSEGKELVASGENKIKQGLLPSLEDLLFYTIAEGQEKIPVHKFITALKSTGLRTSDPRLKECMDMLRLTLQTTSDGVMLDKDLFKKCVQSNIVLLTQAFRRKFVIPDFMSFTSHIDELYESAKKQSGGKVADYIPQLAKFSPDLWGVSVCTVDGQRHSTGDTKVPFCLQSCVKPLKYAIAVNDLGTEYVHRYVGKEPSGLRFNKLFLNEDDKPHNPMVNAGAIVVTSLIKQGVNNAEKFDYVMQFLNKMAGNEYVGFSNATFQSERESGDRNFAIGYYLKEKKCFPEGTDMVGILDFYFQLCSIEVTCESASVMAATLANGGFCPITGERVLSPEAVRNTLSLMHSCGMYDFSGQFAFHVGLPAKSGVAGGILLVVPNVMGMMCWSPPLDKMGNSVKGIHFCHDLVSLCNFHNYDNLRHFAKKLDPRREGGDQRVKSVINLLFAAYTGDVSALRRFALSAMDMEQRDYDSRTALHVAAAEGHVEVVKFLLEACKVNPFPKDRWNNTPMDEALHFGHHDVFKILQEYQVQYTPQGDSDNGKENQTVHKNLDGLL
UniProt O94925, 63-669: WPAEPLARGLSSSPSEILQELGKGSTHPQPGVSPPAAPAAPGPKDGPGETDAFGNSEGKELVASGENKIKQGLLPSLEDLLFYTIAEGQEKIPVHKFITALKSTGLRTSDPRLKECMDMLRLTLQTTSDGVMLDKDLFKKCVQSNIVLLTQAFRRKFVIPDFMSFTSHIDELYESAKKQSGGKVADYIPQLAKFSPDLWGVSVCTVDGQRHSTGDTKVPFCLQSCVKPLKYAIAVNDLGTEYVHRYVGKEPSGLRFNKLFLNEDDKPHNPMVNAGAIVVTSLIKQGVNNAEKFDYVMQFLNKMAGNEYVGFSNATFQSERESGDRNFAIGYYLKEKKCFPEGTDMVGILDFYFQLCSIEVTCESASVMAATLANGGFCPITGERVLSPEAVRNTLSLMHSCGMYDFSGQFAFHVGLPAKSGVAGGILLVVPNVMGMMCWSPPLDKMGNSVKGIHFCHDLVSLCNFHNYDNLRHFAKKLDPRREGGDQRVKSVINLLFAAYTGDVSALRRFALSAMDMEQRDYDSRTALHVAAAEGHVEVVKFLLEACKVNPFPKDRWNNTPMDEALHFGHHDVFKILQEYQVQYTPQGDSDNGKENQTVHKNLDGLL

One test concerns the target cellular GLS activity (Homo sapiens (Human), UniProt O94925). Put plainly: GLS Cell Potency Assay (PC3 coupled assay measuring cellular glutamate depletion). Type of test: cell-based. The settings on record: PC3 cells, 6 h incubation, cellular glutamate depletion; geometric mean where repeated; read-out: Assay b) GLS Cell Potency Assay IC50. The text has this: The following assays were used to measure the effects of the compounds of the present invention: a) GLS Enzyme Potency Assay; b) GLS Cell Potency Assay; c) GLS Cell Proliferation Assay; and d) Mouse Xenograft Model. During the description of the assays, generally: • i. The following abbreviations have been used: CO2=Carbon dioxide; DMEM=Dulbecco's Modified Eagle Medium; DMSO=Dimethyl sulphoxide; EDTA=Ethylenediaminetetraacetic acid; EGTA=Ethylene glycol tetraacetic acid; FCS=Foetal calf serum; h=Hour(s); NBS=Non-binding surface; SDS=Sodium dodecyl sulphate; r.t.=room temperature; TRIS=Tris(Hydroxymethyl)aminomethane. • ii. […]
Compounds were assessed for their potential to inhibit cellular GLS activity by use of a PC3 coupled assay measuring cellular glutamate depletion. […] DMSO concentration was maintained at 0.3% by back filling with DMSO solution. PC3 cells were grown in phenol free DMEM, 10% dialyzed FCS, 2 mM glutamine and following dispersal by trypsinisation were plated at 5.6×10^3 cells per well in 40 μl of growth medium directly into the 384 well assay plates containing dispensed compound. After incubation for 6 h at 37° C., 5% CO2 growth media was aspirated and cells lysed in 15 μl of buffer containing 10 mM TRIS pH7.4, 100 mM NaCl, 1 mM EDTA, 1 mM EGTA, 1 mM NaF, 20 mM Na4P2O7, 2 mM Na3VO4, 1% Triton X-100, 10% glycerol, 0.1% SDS and 0.5% deoxycholate.

The target of a further test is GLS1 (Homo sapiens (Human), UniProt O94925). Put plainly: GLS Enzyme Potency Assay (Glutamate Oxidase/AmplexRed coupled assay). It is filed as biochemical. To be noted: 6His tagged GLS protein (amino acids 63-669); geometric mean where repeated. The text has this: (§1) The following assays were used to measure the effects of the compounds of the present invention: a) GLS Enzyme Potency Assay; b) GLS Cell Potency Assay; c) GLS Cell Proliferation Assay; and d) Mouse Xenograft Model. During the description of the assays, generally: • i. The following abbreviations have been used: CO2=Carbon dioxide; DMEM=Dulbecco's Modified Eagle Medium; DMSO=Dimethyl sulphoxide; EDTA=Ethylenediaminetetraacetic acid; EGTA=Ethylene glycol tetraacetic acid; FCS=Foetal calf serum; h=Hour(s); NBS=Non-binding surface; SDS=Sodium dodecyl sulphate; r.t.=room temperature; TRIS=Tris(Hydroxymethyl)aminomethane. • ii. IC50 values were calculated using a smart fitting model in Genedata. […] Assay a): GLS Enzyme Potency Assay
A Glutamate Oxidase/AmplexRed coupled assay was used to measure the ability of compounds to bind to and inhibit the activity of GLS1 in vitro. […] GLS1 was diluted to 2× working concentration and incubated at r.t. to allow the tetrameric/dimeric forms to reach steady state. Assay measurements were performed in buffer comprising 50 mM TRIS pH 7.8, 100 mM NaPO4, pH 7.8, 0.001% v/v Tween20. […] DMSO concentration was maintained at 2% by back filling with DMSO solution. […] 3 μL of 100 mM glutamine diluted in assay buffer was then added and the reaction incubated at r.t. for 60 minutes. […] An artefact version of the assay where the 6His tagged GLS protein and glutamine were replaced with assay buffer was also used to rule out non specific effects on the assay components.

The subject of a further test is NCI-H1703 cells. The experiment in a line: GLS Cell Proliferation Assay (NCI-H1703). Type of test: cell-based. To be noted: Homo sapiens, 120 h; NCI-H1703 cells, 5 days incubation; geometric mean where repeated; read-out: Assay c) GLS Cell Proliferation Assay.
From the text: as §1, with “Where multiple repeat tests were carried out on a given Example, the result reported is the geometric mean. […]” for “Assay a): GLS Enzyme Potency Assay”
The ability of compounds to inhibit cell growth was measured using a 384 well plate NCI-H1703 cell proliferation assay. […] Plates were read on an Acumen eX3 (TTP Labtech) using 488 nm excitation and FITC filter set (500-530 nm) for emission. IC50 values were calculated by curve fitting to max inhibition of day zero growth using GeneData software analysis.

The structures appear in SMILES notation.

`CO[C@H](C(=O)Nc1nnc(N[C@@H]2CCN(c3nccnn3)C2)s1)c1ccc(F)cc1` [17(a), (2S)-2-(4-fluorophenyl)-2-methoxy-N-[5-[[(3R)-1-(1,2,4-triazin-3-yl)pyrrolidin-3-yl]amino]-1,3,4-thiadiazol-2-yl]acetamide]: the IC50 at cellular GLS activity worked out at 175 nM; against GLS1, 2190 nM. In the same order, the values of `CO[C@@H](C(=O)Nc1nnc(N[C@@H]2CCN(c3nccnn3)C2)s1)c1ccc(F)cc1` [17(b), (2R)-2-(4-fluorophenyl)-2-methoxy-N-[5-[[(3R)-1-(1,2,4-triazin-3-yl)pyrrolidin-3-yl]amino]-1,3,4-thiadiazol-2-yl]acetamide] are 5.95 nM and 92.6 nM.

Regarding `CO[C@H](C(=O)Nc1nnc(N[C@@H]2CCN(c3cncnn3)C2)s1)c1cccc(OC(F)(F)F)c1` [22(a), (2S)-2-methoxy-N-[5-[[(3R)-1-(1,2,4-triazin-6-yl)pyrrolidin-3-yl]amino]-1,3,4-thiadiazol-2-yl]-2-[3-(trifluoromethoxy)phenyl]acetamide], the IC50 is 1.5 nM on cellular GLS activity and 72.9 nM on GLS1. On to `CO[C@@H](C(=O)Nc1nnc(N[C@@H]2CCN(c3cncnn3)C2)s1)c1cccc(OC(F)(F)F)c1` [22(b), (2R)-2-methoxy-N-[5-[[(3R)-1-(1,2,4-triazin-6-yl)pyrrolidin-3-yl]amino]-1,3,4-thiadiazol-2-yl]-2-[3-(trifluoromethoxy)phenyl]acetamide], for which the IC50 on cellular GLS activity amounted to 0.206 nM; with NCI-H1703 cells, 0.729 nM; against GLS1, 43.4 nM. Turning to `CO[C@H](C(=O)Nc1nnc(N[C@@H]2CCN(c3cncnn3)C2)s1)c1cccc(OC(F)F)c1` [23(a), (2S)-2-[3-(difluoromethoxy)phenyl]-2-methoxy-N-[5-[[(3R)-1-(1,2,4-triazin-6-yl)pyrrolidin-3-yl]amino]-1,3,4-thiadiazol-2-yl]acetamide], the IC50 against GLS1 worked out at 27.6 nM. For `CO[C@@H](C(=O)Nc1nnc(N[C@@H]2CCN(c3cncnn3)C2)s1)c1cccc(OC(F)F)c1` [23(b), (2R)-2-[3-(difluoromethoxy)phenyl]-2-methoxy-N-[5-[[(3R)-1-(1,2,4-triazin-6-yl)pyrrolidin-3-yl]amino]-1,3,4-thiadiazol-2-yl]acetamide], the IC50 at GLS1 was found to be 162 nM. With `COc1ccc([C@H](OC)C(=O)Nc2nnc(N[C@@H]3CCN(c4nccnn4)C3)s2)cc1OC` [26(a), (2S)-2-(3,4-dimethoxyphenyl)-2-methoxy-N-[5-[[(3R)-1-(1,2,4-triazin-3-yl)pyrrolidin-3-yl]amino]-1,3,4-thiadiazol-2-yl]acetamide], the IC50 at cellular GLS activity came to 221 nM; on GLS1, 2270 nM. The matching figures for `COc1ccc([C@@H](OC)C(=O)Nc2nnc(N[C@@H]3CCN(c4nccnn4)C3)s2)cc1OC` [26(b), (2R)-2-(3,4-dimethoxyphenyl)-2-methoxy-N-[5-[[(3R)-1-(1,2,4-triazin-3-yl)pyrrolidin-3-yl]amino]-1,3,4-thiadiazol-2-yl]acetamide]: 3.37 nM and 87.7 nM. Turning to `CCO[C@H](C(=O)Nc1nnc(N[C@@H]2CCN(c3cccnn3)C2)s1)c1ccc(OC)cc1` [28(a), (2S)-2-ethoxy-2-(4-methoxyphenyl)-N-[5-[[(3R)-1-pyridazin-3-ylpyrrolidin-3-yl]amino]-1,3,4-thiadiazol-2-yl]acetamide], the IC50 against GLS1 came to 34.1 nM. On the same count and under the same terms, as for `CCO[C@@H](C(=O)Nc1nnc(N[C@@H]2CCN(c3cccnn3)C2)s1)c1ccc(OC)cc1` [28(b), (2R)-2-ethoxy-2-(4-methoxyphenyl)-N-[5-[[(3R)-1-pyridazin-3-ylpyrrolidin-3-yl]amino]-1,3,4-thiadiazol-2-yl]acetamide], the figure is 84.8 nM.

Consider `CCO[C@H](C(=O)Nc1nnc(N[C@@H]2CCN(c3cccnn3)C2)s1)c1cccc(OC)c1` [30(a), (2S)-2-ethoxy-2-(3-methoxyphenyl)-N-[5-[[(3R)-1-pyridazin-3-ylpyrrolidin-3-yl]amino]-1,3,4-thiadiazol-2-yl]acetamide], for which the values for the IC50 on cellular GLS activity and on GLS1 were 6.74 nM and 92.8 nM, respectively. The matching figures for `CCO[C@@H](C(=O)Nc1nnc(N[C@@H]2CCN(c3cccnn3)C2)s1)c1cccc(OC)c1` [30(b), (2R)-2-ethoxy-2-(3-methoxyphenyl)-N-[5-[[(3R)-1-pyridazin-3-ylpyrrolidin-3-yl]amino]-1,3,4-thiadiazol-2-yl]acetamide]: 0.419 nM and 21 nM. The matching figures for `CO[C@H](C(=O)Nc1nnc(N[C@@H]2CCN(c3cccnn3)C2)s1)c1cccc(OC(F)F)c1` [Example 7(a), (2S)-2-[3-(Difluoromethoxy)phenyl]-2-methoxy-N-[5-[[(3R)-1-pyridazin-3-ylpyrrolidin-3-yl]amino]-1,3,4-thiadiazol-2-yl]acetamide]: 0.55 nM and 14.8 nM. In the same order, the values of `CO[C@@H](C(=O)Nc1nnc(N[C@@H]2CCN(c3cccnn3)C2)s1)c1cccc(OC(F)F)c1` [Example 7(b), (2R)-2-[3-(Difluoromethoxy)phenyl]-2-methoxy-N-[5-[[(3R)-1-pyridazin-3-ylpyrrolidin-3-yl]amino]-1,3,4-thiadiazol-2-yl]acetamide] are 3.8 nM and 27.1 nM.

Regarding `CO[C@H](C(=O)Nc1nnc(N[C@@H]2CCN(c3nccnn3)C2)s1)c1cccc(OC(F)(F)F)c1` [Example 8(a), (2S)-2-Methoxy-N-[5-[[(3R)-1-(1,2,4-triazin-3-yl)pyrrolidin-3-yl]amino]-1,3,4-thiadiazol-2-yl]-2-[3-(trifluoromethoxy)phenyl]acetamide], the IC50 on cellular GLS activity was determined as 1.3 nM; against GLS1, 30.6 nM.

For `CO[C@@H](C(=O)Nc1nnc(N[C@@H]2CCN(c3nccnn3)C2)s1)c1cccc(OC(F)(F)F)c1` [Example 8(b), (2R)-2-Methoxy-N-[5-[[(3R)-1-(1,2,4-triazin-3-yl)pyrrolidin-3-yl]amino]-1,3,4-thiadiazol-2-yl]-2-[3-(trifluoromethoxy)phenyl]acetamide], the results for the IC50 at cellular GLS activity and against GLS1 were 29 nM and 221 nM, respectively. In turn, `CO[C@H](C(=O)Nc1nnc(N[C@@H]2CCN(c3cccnn3)C2)s1)c1ccc(F)cc1` [Example 12(a), (2S)-2-(4-Fluorophenyl)-2-methoxy-N-[5-[[(3R)-1-pyridazin-3-ylpyrrolidin-3-yl]amino]-1,3,4-thiadiazol-2-yl]acetamide] gave an IC50 against GLS1 of 22 nM. `CO[C@@H](C(=O)Nc1nnc(N[C@@H]2CCN(c3cccnn3)C2)s1)c1ccc(F)cc1` [Example 12(b), (2R)-2-(4-Fluorophenyl)-2-methoxy-N-[5-[[(3R)-1-pyridazin-3-ylpyrrolidin-3-yl]amino]-1,3,4-thiadiazol-2-yl]acetamide] yielded an IC50 against GLS1 of 102 nM.
